# Data published in patent US12240855B2, “Pyrrolopyrazole derivative” (DAIICHI SANKYO COMPANY, LIMITED, priority 2019, dated 2025).
# Experiments:
# [1] = tested on: HCT116 cells; test: cells; conditions: Homo sapiens, HCT-116, 72 h, read-out: Test Example 3 HCT116 GI50
# [2] = tested on: PTDSS2 gene-disrupted (PTDSS2-KO) HCT116 cells; test: cells; conditions: Homo sapiens, HCT-116, 72 h, read-out: Test Example 3 PTDSS2-KO HCT116 GI50
Structure (SMILES),GI50 [1],GI50 [2]
"CC(F)(F)CN1C(=O)c2[nH]nc(-c3cccc4[nH]c(=O)oc34)c2C1c1ccc(Oc2ccc(OC(F)(F)F)c(Cl)c2)cc1 (single isomer, unassigned; (-)) [Example 31, (−)-7-[4-{4-[3-chloro-4-(trifluoromethoxy)phenoxy]phenyl}-5-(2,2-difluoropropyl)-6-oxo-1,4,5,6,-tetrahydropyrrolo[3,4-c]pyrazol-3-yl]-1,3-benzoxazol-2-(3H)-one]",7.9 µM,0.017 µM
"Cc1cc(Oc2ccc(C3c4c(-c5cccc6[nH]c(=O)oc56)n[nH]c4C(=O)N3CC(C)(F)F)cc2)ccc1OC(F)(F)F (single isomer, unassigned; (-)) [Example 32, (−)-7-[5-(2,2-difluoropropyl)-4-{4-[3-methyl-4-(trifluoromethoxy)phenoxy]phenyl}-6-oxo-1,4,5,6-tetrahydropyrrolo[3,4-c]pyrazol-3-yl]-1,3-benzoxazol-2(3H)-one]",8.3 µM,0.019 µM
"CC(F)(F)CN1C(=O)c2[nH]nc(-c3cccc4[nH]c(=O)oc34)c2C1c1ccc(Oc2cc(Cl)cc(OC(F)(F)F)c2)cc1 (single isomer, unassigned; (-)) [Example 34, (−)-7-[4-{4-[3-Chloro-5-(trifluoromethoxy)phenoxy]phenyl}-5-(2,2-difluoropropyl)-6-oxo-1,4,5,6-tetrahydropyrrolo[3,4-c]pyrazol-3-yl]-1,3-benzoxazol-2(3H)-one]",7.9 µM,0.02 µM
"CC(F)(F)CN1C(=O)c2[nH]nc(-c3cccc4[nH]c(=O)oc34)c2C1c1cccc(Oc2ccc(F)cc2)c1 (single isomer, unassigned; (-)) [Example 53, (−)-7-{5-(2,2-Difluoropropyl)-4-[3-(4-fluorophenoxy)phenyl]-6-oxo-1,4,5,6-tetrahydropyrrolo[3,4-c]pyrazol-3-yl}-1,3-benzoxazol-2(3H)-one]",13 µM,0.017 µM
"CC(F)(F)CN1C(=O)c2[nH]nc(-c3cccc4[nH]c(=O)oc34)c2C1c1ccc(Oc2ccc(Cl)cc2)cc1 (single isomer, unassigned; (-)) [Example 57, (−)-7-{4-[4-(4-Chlorophenoxy)phenyl]-5-(2,2-difluoropropyl)-6-oxo-1,4,5,6-tetrahydropyrrolo[3,4-c]pyrazol-3-yl}-1,3-benzoxazol-2(3H)-one]",8.4 µM,0.055 µM
"CC(F)(F)CN1C(=O)c2[nH]nc(-c3cccc4[nH]c(=O)oc34)c2C1c1ccc(Oc2ccc(Cl)cc2)cc1F (single isomer, unassigned; (-)) [Example 58, (−)-7-{4-[4-(4-Chlorophenoxy)-2-fluorophenyl]-5-(2,2-difluoropropyl)-6-oxo-1,4,5,6-tetrahydropyrrolo[3,4-c]pyrazol-3-yl}-1,3-benzoxazol-2(3H)-one]",8.8 µM,0.05 µM
"O=C1c2[nH]nc(-c3cccc4[nH]c(=O)oc34)c2C(c2ccc(Oc3ccccc3)nc2)N1CC1CC1 (centres unmarked) [Example 4, 7-[5-(Cyclopropylmethyl)-6-oxo-4-(6-phenoxypyridin-3-yl)-1,4,5,6-tetrahydropyrrolo[3,4-c]pyrazol-3-yl]-1,3-benzoxazol-2(3H)-one]",17 µM,3.2 µM
"O=C1c2[nH]nc(-c3cccc4[nH]c(=O)oc34)c2C(c2ccc(-c3ccccc3F)cc2)N1CC1CC1 (centres unmarked) [Example 5, 7-[5-(Cyclopropylmethyl)-4-(2′-fluoro[1,1′-biphenyl]-4-yl)-6-oxo-1,4,5,6-tetrahydropyrrolo[3,4-c]pyrazol-3-yl]-1,3-benzoxazol-2(3H)-one]",12 µM,0.91 µM
"O=C1c2[nH]nc(-c3cccc4[nH]c(=O)oc34)c2C(c2cccc(OC3CCC3)c2)N1CC1CC1 (centres unmarked) [Example 6, 7-{4-[3-(Cyclobutyloxy)phenyl]-5-(cyclopropylmethyl)-6-oxo-1,4,5,6-tetrahydropyrrolo[3,4-c]pyrazol-3-yl}-1,3-benzoxazol-2(3H)-one]",24 µM,0.71 µM
"O=C1c2[nH]nc(-c3cccc4[nH]c(=O)oc34)c2C(c2cc(Oc3ccccc3)ccc2F)N1CC(F)(F)F (centres unmarked) [Example 10, 7-[4-(2-Fluoro-5-phenoxy]phenyl)-6-oxo-5-(2,2,2-trifluoroethyl)-1,4,5,6-tetrahydropyrrolo[3,4-c]pyrazol-3-yl-1,3-benzoxazol-2(3H)-one]",20 µM,0.055 µM
"CC(=O)Nc1cccc(-c2n[nH]c3c2C(c2cc(Oc4ccccc4)ccc2F)N(CC(F)(F)F)C3=O)c1 (centres unmarked) [Example 14, N-{3-[4-(2-Fluoro-5-phenoxy]phenyl)-6-oxo-5-(2,2,2-trifluoroethyl)-1,4,5,6-tetrahydropyrrolo[3,4-c]pyrazol-3-ylphenyl}acetamide]",9.8 µM,2.9 µM
"Cc1nc(C2c3c(-c4cccc5[nH]c(=O)oc45)n[nH]c3C(=O)N2CC(C)(F)F)nc(C)c1Cl (centres unmarked) [Example 26, 7-[4-(5-Chloro-4,6-dimethylpyrimidine-2-yl)-5-(2,2-difluoropropyl)-6-oxo-1,4,5,6-tetrahydropyrrolo[3,4-c]pyrazol-3-yl]-1,3-benzoxazol-2(3H)-one]",22 µM,0.48 µM
"CCCCc1cccc(C2c3c(-c4cccc5[nH]c(=O)oc45)n[nH]c3C(=O)N2CC(C)(F)F)c1 (centres unmarked) [Example 27, 7-[4-(3-Butylphenyl)-5-(2,2-difluoropropyl)-6-oxo-1,4,5,6-tetrahydropyrrolo[3,4-c]pyrazol-3-yl]-1,3-benzoxazol-2(3H)-one]",14 µM,0.064 µM
"CC(F)(F)CN1C(=O)c2[nH]nc(-c3cccc4[nH]c(=O)oc34)c2C1c1ccc(Cl)cc1Oc1ccccc1 (centres unmarked) [Example 28, 7-[4-(4-Chloro-2-phenoxyphenyl)-5-(2,2-difluoropropyl)-6-oxo-1,4,5,6-tetrahydropyrrolo[3,4-c]pyrazol-3-yl]-1,3-benzoxazol-2(3H)-one]",11 µM,0.87 µM
CC(F)(F)CN1C(=O)c2[nH]nc(-c3cccc4[nH]c(=O)oc34)c2C1c1ccc(OC2CCOCC2)cc1 (centres unmarked) [Example 29],7.3 µM,1.1 µM
"CC(F)(F)CN1C(=O)c2[nH]nc(-c3cccc4[nH]c(=O)oc34)c2C1c1cnc(Oc2ccc(F)cc2)cn1 (centres unmarked) [Example 74, 7-{5-(2,2-Difluoropropyl)-4-[5-(4-fluorophenoxy)pyrazine-2-yl]-6-oxo-1,4,5,6-tetra hydropyrrolo[3,4-c]pyrazol-3-yl}-1,3-benzoxazol-2(3H)-one]",7.7 µM,0.89 µM
"CC(F)(F)CN1C(=O)c2[nH]nc(-c3cccc4[nH]c(=O)oc34)c2C1c1ccc(Oc2ccc(Cl)cc2)nn1 (centres unmarked) [Example 75, 7-{4-[6-(4-Chlorophenoxy)pyridazine-3-yl]-5-(2,2-difluoropropyl)-6-oxo-1,4,5,6-tetrahydropyrrolo[3,4-c]pyrazol-3-yl}-1,3-benzoxazol-2(3H)-one]",18 µM,3.4 µM
"CC(F)(F)CN1C(=O)c2[nH]nc(-c3cccc4[nH]c(=O)oc34)c2C1c1cnc(Oc2ccc(Cl)c(Cl)c2)s1 (centres unmarked) [Example 76, 7-{4-[2-(3,4-Dichlorophenoxy)-1,3-thiazol-5-yl]-5-(2,2-difluoropropyl)-6-oxo-1,4,5,6-tetrahydropyrrolo[3,4-c]pyrazol-3-yl]-1,3-benzoxazol-2(3H)-one]",7.8 µM,0.2 µM
"CC(F)(F)CN1C(=O)c2[nH]nc(-c3cccc4[nH]c(=O)oc34)c2C1c1ccc(Oc2nc(C(F)(F)F)cs2)cc1 (centres unmarked) [Example 79, 7-[5-(2,2-Difluoropropyl)-6-oxo-4-(4-{[4-(trifluoromethyl)-1,3-thiazol-2-yl]oxy}phenyl)-1,4,5,6-tetrahydropyrrolo[3,4-c]pyrazol-3-yl]-1,3-benzoxazol-2(3H)-one]",13 µM,0.22 µM
"CC(F)(F)CN1C(=O)c2[nH]nc(-c3cccc4[nH]c(=O)oc34)c2C1c1ccc(Oc2cc(C(F)(F)F)cc(Cl)n2)cc1 (centres unmarked) [Example 80, 7-[4-(4-{[6-Chloro-4-(trifluoromethyl)pyridin-2-yl]oxy}phenyl)-5-(2,2-difluoropropyl)-6-oxo-1,4,5,6-tetrahydropyrrolo[3,4-c]pyrazol-3-yl]-1,3-benzoxazol-2(3H)-one]",8.3 µM,0.17 µM
"CC(F)(F)CN1C(=O)c2[nH]nc(-c3cccc4[nH]c(=O)oc34)c2C1c1cccc(Nc2ccccc2)c1 (centres unmarked) [Example 89, 7-[4-(3-Anilinophenyl)-5-(2,2-difluoropropyl)-6-oxo-1,4,5,6-tetrahydropyrrolo[3,4-c]pyrazol-3-yl]-1,3-benzoxazol-2(3H)-one]",17 µM,0.1 µM
"CC(F)(F)CN1C(=O)c2[nH]nc(-c3cccc4[nH]c(=O)[nH]c34)c2C1c1ccc(Oc2ccc(Cl)cc2)cc1 (centres unmarked) [Example 94, 4-{4-[4-(4-Chlorophenoxy)phenyl]-5-(2,2-difluoropropyl)-6-oxo-1,4,5,6-tetrahydropyrrolo[3,4-c]pyrazol-3-yl}-1,3-dihydro-2H-benzimidazole-2-one]",7.4 µM,3.6 µM
